Literature values, collected in patent US20220080043A1, “OIL/SURFACTANT MIXTURES FOR SELF-EMULSIFICATION” (priority 2019, published 2022).
Like-named read-outs stand apart in the source and are kept apart here.

alpha-tocopherol-polyethylene glycol succinate [TPGS]
HLB: 13-13.2
HLB (Table 2, surfactants used): 13-13.2
